Results published in patent US12686690B2, “Macrocyclic urea orexin receptor agonists” (Merck Sharp & Dohme LLC, priority 2020, dated 2026).

Protein sequences, listed by entry. Tags and fused reporters are not part of them.
UniProt O43614, whole entry: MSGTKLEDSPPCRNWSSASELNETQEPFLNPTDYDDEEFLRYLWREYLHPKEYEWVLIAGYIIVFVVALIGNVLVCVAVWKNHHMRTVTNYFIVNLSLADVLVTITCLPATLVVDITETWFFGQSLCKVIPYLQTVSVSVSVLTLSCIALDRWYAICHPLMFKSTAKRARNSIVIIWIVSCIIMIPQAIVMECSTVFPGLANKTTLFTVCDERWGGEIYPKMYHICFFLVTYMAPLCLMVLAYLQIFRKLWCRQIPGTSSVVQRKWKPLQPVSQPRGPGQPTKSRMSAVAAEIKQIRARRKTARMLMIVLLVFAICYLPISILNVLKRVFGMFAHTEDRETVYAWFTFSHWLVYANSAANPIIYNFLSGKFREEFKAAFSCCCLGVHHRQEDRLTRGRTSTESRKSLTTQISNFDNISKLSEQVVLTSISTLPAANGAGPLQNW

Molecular target: hOX2R (Homo sapiens, UniProt O43614)
Assay: hOX2R IPone assay (orexin receptor agonism)
Format: cell-based
Conditions: read-out: hOX2R_IPone EC50; orexin receptor agonist, IPone readout

- EC50: 1.8 nM
Compound: CCN1C(=O)NC(CCC(F)(F)F)CCC(F)(F)CCOc2nc(cn3ccnc23)-c2cc(ncc2OC)[C@H]1C (single isomer, unassigned)
